Six compounds from ChEMBL document CHEMBL1121722, “Nonquaternary cholinesterase reactivators. Dialkylaminoalkyl thioesters of alpha-ketothiohydroximic acids as reactivators of diisopropyl phosphorofluoridate inhibited acetylcholinesterase” (1981) can be followed below.

Amino acid sequences for entries named in this document (tags omitted). A change or cut given only in a name is not applied to a line headed by its entry.
UniProt P22303: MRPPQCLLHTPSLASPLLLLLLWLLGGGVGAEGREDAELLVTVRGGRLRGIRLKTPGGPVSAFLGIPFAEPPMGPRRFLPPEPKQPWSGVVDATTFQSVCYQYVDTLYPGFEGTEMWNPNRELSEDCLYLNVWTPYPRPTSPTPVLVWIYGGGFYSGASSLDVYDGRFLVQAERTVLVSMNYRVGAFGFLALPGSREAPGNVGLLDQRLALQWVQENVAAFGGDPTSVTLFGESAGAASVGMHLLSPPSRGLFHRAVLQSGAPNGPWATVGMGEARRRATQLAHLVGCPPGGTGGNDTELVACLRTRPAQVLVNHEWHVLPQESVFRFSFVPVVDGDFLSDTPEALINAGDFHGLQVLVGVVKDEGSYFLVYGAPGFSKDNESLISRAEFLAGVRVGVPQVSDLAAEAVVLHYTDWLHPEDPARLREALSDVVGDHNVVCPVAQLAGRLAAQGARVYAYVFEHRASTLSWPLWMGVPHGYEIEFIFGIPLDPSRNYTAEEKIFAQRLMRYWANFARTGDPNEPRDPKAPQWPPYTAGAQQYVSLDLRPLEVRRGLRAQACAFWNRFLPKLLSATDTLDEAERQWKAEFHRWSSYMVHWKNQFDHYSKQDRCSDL

Structures are written as SMILES.

In assay [1] the target is Acetylcholinesterase (Homo sapiens) (UniProt P22303). The assay can be described thus: Percent reactivation of acetylcholinesterase after 2 hr incubation.
Assay [2] has the same target. The assay can be described thus: Percent reactivation of acetylcholinesterase after 4 hr incubation.
Assay [3] has the same target. The experiment in a line: Percent reactivation of acetylcholinesterase after 24 hr incubation.
Assay [4] has the same target. The assay can be described thus: Maximum attainable percent reactivation obtained for a range of concentrations of 2M*10e4 HOX and 1M*10e4OX.
The target is the same in assay [5]. The experiment in a line: Maximum attainable percent reactivation obtained for a range of concentrations of 4M*10e4 HOX and 2M*10e4OX.
Assay [6] shares this target. The assay can be described thus: Maximum attainable percent reactivation obtained for a range of concentrations of 20 M*10e4 HOX and 10M*10e4OX.
The target is the same in assay [7]. The experiment in a line: Pseudo first order observed rate constants for reactivation of acetylcholinesterase at 2M*10e4 HOX and 1M*10e4OX; Kobs (min-1 X 10e3).
Assay [8] has the same target. The experiment in a line: Pseudo first order observed rate constants for reactivation of acetylcholinesterase at 4M*10e4 HOX and 2M*10e4OX; Kobs (min-1 X 10e3).
For assay [9] the target is unchanged. The experiment in a line: Pseudo first order observed rate constants for reactivation of acetylcholinesterase at 20 M*10e4 HOX and 10M*10e4OX; Kobs (min-1 X 10e3).
Assay [10] has the same target. The assay can be described thus: Ratio of ka to that of kr for reactivation of acetylcholinesterase at concentration of 2M*10e4 [HOX] and 10 Me-1*10e-3 [OX]e-1 was determined.
Assay [11] has the same target. The assay can be described thus: kr for reactivation of acetylcholinesterase at concentration of 2M*10e4 [HOX] and 10 Me-1*10e-3 [OX]e-1 was determined; Expressed as kr, M*10e3.
Assay [12] has the same target. The experiment in a line: Kr for reactivation of acetylcholinesterase at concentration of 2M*10e4 [HOX] and 10 Me-1*10e-3 [OX]e-1 was determined; Expressed as kr, M*10e4.
The target is the same in assay [13]. The assay can be described thus: kb for reactivation of acetylcholinesterase at concentration of 2M*10e4 [HOX] and 10 Me-1*10e-3 [OX]e-1 was determined; Expressed as kb, 1/M 1/min.
Assay [14] shares this target. The experiment in a line: 1/kmax for reactivation of acetylcholinesterase at concentration of 2M*10e4 [HOX] and 10 Me-1*10e-3 [OX]e-1 was determined; Expressed as 1/kmax, min.
Assay [15] shares this target. The experiment in a line: ka for reactivation of acetylcholinesterase at concentration of 2M*10e4 [HOX] and 10 Me-1*10e-3 [OX]e-1 was determined; Expressed as ka, 1/min 1*10e3.
For assay [16] the target is unchanged. The experiment in a line: keff for reactivation of acetylcholinesterase at concentration of 2M*10e4 [HOX] and 10 Me-1*10e-3 [OX]e-1 was determined; Expressed as keff, 1/M 1/min.
For assay [17] the target is unchanged. The assay can be described thus: Kinetic constant was determined for reactivation of acetylcholinesterase at concentration of 4M*10e4 [HOX] and 5Me-1*10e-3 [OX]e-1; (kobsd-ka)e-1, min.
The target is the same in assay [18]. The assay can be described thus: keff (rel) for reactivation of acetylcholinesterase at concentration of 2M*10e4 [HOX] and 10 Me-1*10e-3 [OX]e-1 was determined; Expressed as keff (rel).
Assay [19] has the same target. The assay can be described thus: Kinetic constant was determined for reactivation of acetylcholinesterase at concentration of 2M*10e4 [HOX] and 10 Me-1*10e-3 [OX]e-1; (kobsd-ka)e-1, min.
Assay [20] shares this target. The assay can be described thus: Kinetic constant was determined for reactivation of acetylcholinesterase at concentration of 20 M*10e4 [HOX] and 1Me-1*10e-3 [OX]e-1; (kobsd-ka)e-1, min.
Assay [21] has the same target. The experiment in a line: Ratio of Kr/kmax for reactivation of acetylcholinesterase at concentration of 2M*10e4 [HOX] and 10 Me-1*10e-3 [OX]e-1 was determined; Expressed as Kr/kmax, M-min*10e2.
Assay [22] shares this target. The experiment in a line: Ratio of kaKr to that of kr for reactivation of acetylcholinesterase at concentration of 2M*10e4 [HOX] and 10 Me-1*10e-3 [OX]e-1 was determined; Expressed as kaKr/kr; M*10e4.
The target is the same in assay [23]. The assay can be described thus: Ratio of [EOP']infinity to that of [EOH]infinity for reactivation of acetylcholinesterase at concentration of 2M*10e4 [HOX] and 10 Me-1*10e-3 [OX]e-1; Expressed as [EOP']infinity/[EOH]infinity.
The target is the same in assay [24]. The assay can be described thus: Ratio of [EOP'']infinity to that of [EOH]infinity for reactivation of acetylcholinesterase at concentration of 4M*10e4 [HOX] and 5Me-1*10e-3 [OX]e-1; Expressed as [EOP'']infinity/[EOH]infinity.
For assay [25] the target is unchanged. The assay can be described thus: Ratio of [EOP'']infinity to that of [EOH]infinity for reactivation of acetylcholinesterase at concentration of 20 M*10e4 [HOX] and 1Me-1*10e-3 [OX]e-1; Expressed as [EOP'']infinity/[EOH]infinity.

`COc1ccc(C(=O)/C(=N/O)SCCN(C(C)C)C(C)C)cc1`: the results for the Reactivation in [1], in assay [2] and in assay [3] were 4.3%, 2.8% and 21%, respectively.
The like results for `CCN(CC)CCS/C(=N\O)C(=O)c1ccc(Br)cc1` were, in that order, 8%, 8% and 9%.
On to `CCN(CC)CCS/C(=N\O)C(C)=O`, for which the Reactivation in assay [1] was determined as 13%; in assay [2] it was 28%; in assay [3], 23%.
The like results for `CC[N+](C)(CC)CCS/C(=N\O)C(=O)c1ccc(OC)cc1` were, in that order, 5.6%, 9.5% and 18%.
As to `COc1ccc(C(=O)/C(=N/O)SCCCN(C)C)cc1`, the figures for the Reactivation in assay [1], in assay [2] and in assay [3] were 0%, 0% and 16%, respectively.
As to `CCN(CC)CCS/C(=N\O)C(=O)c1ccccc1`, the Reactivation stood at 63% in [1]; 83% in [2]; 80% in assay [3]; 3.19% in assay [4]; 3.39% in assay [5]; 4.42% in [6]. Besides, the k obs in [7] was determined as 98.5 s⁻¹; in assay [8], 114 s⁻¹; in assay [9] it was 184 s⁻¹. In addition, in [10], the ka/kr is 0.21. Besides, the kr in assay [11] amounted to 9300 min⁻¹. The Kr in assay [12] came to 13000 M. Further, the kb in assay [13] turned out to be 1.17 M⁻¹ s⁻¹. In addition, the 1/kmax in assay [14] is 103 min. This compound also showed a ka in assay [15] of 2000 min⁻¹. Further, the k eff in [16] is 0.567 M⁻¹ s⁻¹. The 1/kobsd-ka in assay [17] worked out at 190 min; in assay [19], 231 min; in assay [20] it was 106 min. This compound also registered a k eff (rel) in assay [18] of 3.1. The Kr/kmax in assay [21] stood at 140 M-min. In addition, in [22], the kaKr/kr amounted to 32000 M. Also, the [EOP']infinity/[EOH]infinity in assay [23] stood at 3.12; in [24] it was 2.37; in assay [25] it was 0.203.
